We go through 9 compounds from patent publication US10246442B2, “4-Aminoquinazolin compounds as prolyl hydroxylase inhibitors” (JANSSEN PHARMACEUTICA NV, priority 2011, dated 2019).

Amino acid sequences for entries named in this document (tags omitted). Residues count along the entry.
UniProt Q9GZT9, 181-417: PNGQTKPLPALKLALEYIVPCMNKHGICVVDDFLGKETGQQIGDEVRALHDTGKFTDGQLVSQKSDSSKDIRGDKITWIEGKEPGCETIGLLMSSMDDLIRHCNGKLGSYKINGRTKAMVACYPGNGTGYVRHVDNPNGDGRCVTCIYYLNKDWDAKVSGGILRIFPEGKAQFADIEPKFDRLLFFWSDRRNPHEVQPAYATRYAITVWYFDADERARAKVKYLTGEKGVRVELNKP

In this assay the target is PHD2181-417 (Homo sapiens (Human), UniProt Q9GZT9). Nature of the assay: PHD enzymatic assay ([14C]-succinic acid production). The format is biochemical. The settings on record: purified PHD2181-417, HIF-1α peptide substrate, 30 min pre-incubation; average of results. Here is the method:
Expression and Purification of PHD2181-417
The human PHD2 expression construct containing amino acids 181-417 of GenBank Accession ID NM_022051 was cloned into a pBAD vector (Invitrogen), incorporating both an N-terminal histidine tag and a Smt3-tag, both of which are cleaved by Ulp1. Protein production was achieved by expression in BL21 cells grown in Terrific Broth containing 100 μg/ml ampicillin. Cell cultures were inoculated at 37° C. and grown to an OD600 of 0.8. Cultures were induced with 0.1% arabinose and grown overnight at 20° C. with continuous shaking at 225 rpm. Cells were then harvested by centrifugation and stored at −80° C. Cell pellets were suspended in Buffer A (50 mM Tris-HCl pH 7.2, 100 mM NaCl, 100 mM L-arginine, 1 mM TCEP, 0.05% (w/v) NP-40, 50 mM imidazole) followed by the addition of lysozyme and benzonase. Cells were lysed by sonication and the lysate was cleared by centrifugation (15,000 rpm, 90 min, 4° C.). The protein was purified by nickel affinity chromatography using a HisTrap Crude FF column (GE Healthcare). Samples were eluted in Buffer A with a 50-200 mM imidazole gradient. Cleavage of the Smt tag with Ulp1 protease was achieved via overnight incubation with dialyzing against Buffer A. The PHD2181-417 sample was then passed over a second HisTrap Crude FF column (GE Healthcare) to remove uncleaved protein. The flow-through was then dialyzed into 50 mM MES pH 6.0, 1 mM TCEP, 5 mM NaCl for ion exchange chromatography on a HiTrap SP Cation Exchange column (GE Healthcare). The PHD2181-417 protein was eluted with a 0-0.2 M NaCl gradient. Fractions were pooled for further purification by size exclusion chromatography over a Superdex 75 Size Exclusion Column (GE Healthcare). Final protein was concentrated to 4 mg/ml and dialyzed in 10 mM PIPES pH 7.0, 100 mM NaCl, 0.5 mM TCEP. The protein was determined to have a purity of >95% by gel electrophoresis.
The PHD enzymatic assay was performed in 0.5 ml of reaction mixture containing the following: purified PHD2181-417 polypeptide (3 μg), synthetic HIF-1α peptide comprising residues [[…]] (10 μM, California Peptide Research Inc., Napa, Calif.), and [5-^14C]-2-oxoglutaric acid (50 mCi/mmol, Moravek Chemicals, Brea, Calif.) in reaction buffer (40 mM Tris-HCl, pH 7.5, 0.4 mg/ml catalase, 0.5 mM DTT, 1 mM ascorbate) for 10 minutes. Compounds were pre-incubated for 30 min before starting the reaction (all test compounds were dissolved at 10 mM in 100% DMSO (w/v) and were tested with final compound concentrations at 100 μM in 1% DMSO (w/v)). The reaction was stopped by addition of 50 μl of 70 mM H3PO4 and 50 μl of 500 mM NaH2PO4, pH 3.2. Detection of [^14C]-succinic acid was achieved by separating from [5-^14C]-2-oxoglutaric acid by incubating the reaction mixture with 100 μl of 0.16 M DNP prepared in 30% perchloric acid. Next, 50 μl of unlabeled 20 mM 2-oxoglutaric acid/20 mM succinic acid, serving as carrier for the radioactivity, was added to the mixture, and was allowed to proceed for 30 minutes at room temperature. The reaction was then incubated with 50 μl of 1 M 2-oxoglutaric acid for 30 additional minutes at room temperature to precipitate the excess DNP. The reaction was then centrifuged at 2800×g for 10 minutes at room temperature to separate [^14C]-succinic acid in the supernatant from the precipitated [^14C]-dinitrophenylhydrazone. Fractions of the supernatant (400 μI) were counted using a beta counter (Beckman Coulter, Fullerton, Calif.). Inhibition of PHD2181-417 activity was measured as a decrease in succinic acid production. The IC50 values were estimated by fitting the data to a three-parameter logistic function using GraphPad Prism, version 4.02 (Graph Pad Software, San Diego, Calif.).
For `Cc1cccc(C)c1Oc1cc2c(N)nc(-n3cc(C(=O)O)cn3)nc2cc1F` [Example 1, 1-[4-Amino-6-(2,6-dimethyl-phenoxy)-7-fluoro-quinazolin-2-yl]-1H-pyrazole-4-carboxylic acid], the “Enzyme pIC50” value was found to be 7.2.

As to `Cc1cccc(C)c1Oc1cc2c(N(C)C)nc(-n3cc(C(=O)O)cn3)nc2cc1F` [Example 3, 1-[4-Dimethylamino-6-(2,6-dimethyl-phenoxy)-7-fluoro-quinazolin-2-yl]-1H-pyrazole-4-carboxylic acid], the “Enzyme pIC50” value amounted to 7.2. `Cc1cccc(C)c1Oc1cc2c(Nc3ccccc3Cl)nc(-n3cc(C(=O)O)cn3)nc2cc1F` [Example 7, 1-[4-(2-Chloro-phenylamino)-6-(2,6-dimethyl-phenoxy)-7-fluoro-quinazolin-2-yl]-1H-pyrazole-4-carboxylic acid]: the “Enzyme pIC50” value is recorded as 7.2. Take `Cc1cccc(C)c1Oc1cc2c(NCC3CC3)nc(-n3cc(C(=O)O)cn3)nc2cc1F` [Example 15, 1-((4-Cyclopropanemethylamino)-6-(2,6-dimethylphenoxy)-7-fluoroquinazolin-2-yl)-1H-pyrazole-4-carboxylic acid]: the “Enzyme pIC50” value worked out at 7.2. Turning to `Cc1cccc(C)c1CNc1nc(-n2cc(C(=O)O)cn2)nc2ccc(C3CCCCC3)cc12` [Example 23, 1-[6-Cyclohexyl-4-(2,6-dimethyl-benzylamino)-quinazolin-2-yl]-1H-pyrazole-4-carboxylic acid], the “Enzyme pIC50” value was 5.9. With `O=C(O)c1cnn(-c2nc(N3CCCCCC3)c3ccc(Oc4ccccc4)cc3n2)c1` [Example 87, 1-(4-(Azepan-1-yl)-7-phenoxyquinazolin-2-yl)-1H-pyrazole-4-carboxylic acid], the “Enzyme pIC50” value is given as 7.2. The value for `CCCN(CCC)c1nc(-n2cc(C(=O)O)cn2)nc2cc(Oc3ccccc3)ccc12` [Example 93, 1-(4-(Dipropylamino)-7-phenoxyquinazolin-2-yl)-1H-pyrazole-4-carboxylic acid] was 7.2; that for `CCN(CC)c1nc(-n2cc(C(=O)O)cn2)nc2ccc(OC3CCCCC3)cc12` [Example 174, 1-(6-(cyclohexyloxy)-4-(diethylamino)quinazolin-2-yl)-1H-pyrazole-4-carboxylic acid] was 7.2. The result for `O=C(O)c1cnn(-c2nc(N3CCCC3)c3cc(OC4CCCCC4)ccc3n2)c1` [Example 175, 1-(6-(cyclohexyloxy)-4-(pyrrolidin-1-yl)quinazolin-2-yl)-1H-pyrazole-4-carboxylic acid] reads 7.2.
